Test: Ratio of clearance in plasma to brain of Sprague-Dawley rat at 5 mg/kg, sc measured after 1 to 168 hrs post dose by LC/MS-MS method
Format: ADME, organism-based
Settings: in vivo

`CC(C)[C@@H](CC1CCCC1)NC(=O)[C@H]1Cc2ccc(O)cc2CN1` gave a Ratio of 6.1.
